From patent US20240360179A1, “STAPLED PEPTIDES AND METHODS THEREOF” (FOG PHARMACEUTICALS, INC., priority 2021, published 2024) come the findings set out here.

The chains behind the UniProt entries cited, without tags or fusion partners.
UniProt P35222, whole entry: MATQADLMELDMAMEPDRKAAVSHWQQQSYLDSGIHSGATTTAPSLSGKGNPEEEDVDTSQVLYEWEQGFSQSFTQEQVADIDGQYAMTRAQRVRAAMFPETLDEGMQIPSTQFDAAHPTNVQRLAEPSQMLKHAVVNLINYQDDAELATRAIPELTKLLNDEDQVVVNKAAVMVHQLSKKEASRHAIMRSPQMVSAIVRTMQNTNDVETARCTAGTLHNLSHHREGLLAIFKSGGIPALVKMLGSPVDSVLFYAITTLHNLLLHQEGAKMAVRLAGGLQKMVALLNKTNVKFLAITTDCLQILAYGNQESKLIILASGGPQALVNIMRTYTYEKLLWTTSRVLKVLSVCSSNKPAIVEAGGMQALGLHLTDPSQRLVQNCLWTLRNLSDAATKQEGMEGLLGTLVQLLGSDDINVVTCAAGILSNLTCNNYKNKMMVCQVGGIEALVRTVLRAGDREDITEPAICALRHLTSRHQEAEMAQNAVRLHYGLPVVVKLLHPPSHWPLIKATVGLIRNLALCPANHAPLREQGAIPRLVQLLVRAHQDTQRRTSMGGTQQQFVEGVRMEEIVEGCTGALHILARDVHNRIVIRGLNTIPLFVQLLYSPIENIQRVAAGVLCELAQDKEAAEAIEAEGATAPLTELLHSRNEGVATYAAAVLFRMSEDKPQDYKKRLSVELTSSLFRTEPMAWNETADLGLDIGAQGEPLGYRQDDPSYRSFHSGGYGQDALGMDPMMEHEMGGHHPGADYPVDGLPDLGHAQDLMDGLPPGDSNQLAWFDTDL

In the test the target is T1, full-length B-Catenin (Uniprot ID P35222) (Homo sapiens, UniProt P35222).
T1 construct: 10 nM full-length B-Catenin (Uniprot ID P35222)
Nature of the test: biochemical. Type of test: binding. The following applies: beta-Catenin FP IC50 (nM), competition fluorescence polarization.
Compound `CC(=O)N1CCC[C@]12CC=CCCCC1(CCCC=CCCCOC(=O)N3CC[C@@]4(C3)NC(=O)[C@H](CCCCNC(=O)CC[C@@H](C(=O)N[C@@H](C)C(N)=O)NC(=O)[C@H](Cc3csc5ccccc35)NC(=O)[C@H](C(C)C)NC4=O)NC(=O)[C@H](Cc3ccccc3)NC(=O)[C@H](C)NC(=O)C(C)(C)NC(=O)[C@H](Cc3cccc(C(=O)O)c3)NC(=O)[C@H](CC(=O)O)NC1=O)NC(=O)[C@H](CC(C)(C)C)NC(=O)[C@H](CC(=O)O)NC2=O` (relative stereo) [I-535, Ac-PL3-Asp-Npg-B5-Asp-3COOHF-Aib-Ala-Phe-Lys*3-PyrS2-Val-BztA-GlnR*3-Ala-NH2] came in with a half-inhibitory concentration (IC50) of 50 to 200 nM. The result for `CC[C@H](C)[C@@H]1NC(=O)[C@]23CCN(C2)C(=O)OCCCC=CCCCC2(CCCC=CC[C@]4(CCCN4C(C)=O)C(=O)N[C@@H](CC(=O)O)C(=O)N[C@@H](CC(C)(C)C)C(=O)N2)C(=O)N[C@@H](CC(=O)O)C(=O)N[C@@H](Cc2cccc(C(=O)O)c2)C(=O)NC(C)(C)C(=O)N[C@@H](C)C(=O)N[C@@H](Cc2ccccc2)C(=O)N[C@@H](CCCCNC(=O)CC[C@@H](C(=O)N[C@@H](C)C(N)=O)NC(=O)[C@H](Cc2csc4ccccc24)NC1=O)C(=O)N3` (relative stereo) [I-536, Ac-PL3-Asp-Npg-B5-Asp-3COOHF-Aib-Ala-Phe-Lys*3-PyrS2-Ile-BztA-GlnR*3-Ala-NH2] reads 50 to 200 nM; that for `CC(=O)N1CCC[C@]12CC=CCCCC1(CCCC=CCCCOC(=O)N3CC[C@@]4(C3)NC(=O)[C@H](CCCCNC(=O)CC[C@@H](C(=O)N[C@@H](C)C(N)=O)NC(=O)[C@H](Cc3csc5ccccc35)NC(=O)[C@H](C3CCCCC3)NC4=O)NC(=O)[C@H](Cc3ccccc3)NC(=O)[C@H](C)NC(=O)C(C)(C)NC(=O)[C@H](Cc3cccc(C(=O)O)c3)NC(=O)[C@H](CC(=O)O)NC1=O)NC(=O)[C@H](CC(C)(C)C)NC(=O)[C@H](CC(=O)O)NC2=O` (relative stereo) [I-537, Ac-PL3-Asp-Npg-B5-Asp-3COOHF-Aib-Ala-Phe-Lys*3-PyrS2-Chg-BztA-GlnR*3-Ala-NH2], < 50 nM. In the case of `CCC(CC)[C@@H]1NC(=O)[C@]23CCN(C2)C(=O)OCCCC=CCCCC2(CCCC=CC[C@]4(CCCN4C(C)=O)C(=O)N[C@@H](CC(=O)O)C(=O)N[C@@H](CC(C)(C)C)C(=O)N2)C(=O)N[C@@H](CC(=O)O)C(=O)N[C@@H](Cc2cccc(C(=O)O)c2)C(=O)NC(C)(C)C(=O)N[C@@H](C)C(=O)N[C@@H](Cc2ccccc2)C(=O)N[C@@H](CCCCNC(=O)CC[C@@H](C(=O)N[C@@H](C)C(N)=O)NC(=O)[C@H](Cc2csc4ccccc24)NC1=O)C(=O)N3` (relative stereo) [I-538, Ac-PL3-Asp-Npg-B5-Asp-3COOHF-Aib-Ala-Phe-Lys*3-PyrS2-DiethA-BztA-GlnR*3-Ala-NH2] it was < 50 nM; in that of `CCCCC[C@@H]1NC(=O)[C@]23CCN(C2)C(=O)OCCCC=CCCCC2(CCCC=CC[C@]4(CCCN4C(C)=O)C(=O)N[C@@H](CC(=O)O)C(=O)N[C@@H](CC(C)(C)C)C(=O)N2)C(=O)N[C@@H](CC(=O)O)C(=O)N[C@@H](Cc2cccc(C(=O)O)c2)C(=O)NC(C)(C)C(=O)N[C@@H](C)C(=O)N[C@@H](Cc2ccccc2)C(=O)N[C@@H](CCCCNC(=O)CC[C@@H](C(=O)N[C@@H](C)C(N)=O)NC(=O)[C@H](Cc2csc4ccccc24)NC1=O)C(=O)N3` (relative stereo) [I-539, Ac-PL3-Asp-Npg-B5-Asp-3COOHF-Aib-Ala-Phe-Lys*3-PyrS2-hnLeu-BztA-GlnR*3-Ala-NH2], < 50 nM; in that of `CCCCCCCC[C@@H]1NC(=O)[C@]23CCN(C2)C(=O)OCCCC=CCCCC2(CCCC=CC[C@]4(CCCN4C(C)=O)C(=O)N[C@@H](CC(=O)O)C(=O)N[C@@H](CC(C)(C)C)C(=O)N2)C(=O)N[C@@H](CC(=O)O)C(=O)N[C@@H](Cc2cccc(C(=O)O)c2)C(=O)NC(C)(C)C(=O)N[C@@H](C)C(=O)N[C@@H](Cc2ccccc2)C(=O)N[C@@H](CCCCNC(=O)CC[C@@H](C(=O)N[C@@H](C)C(N)=O)NC(=O)[C@H](Cc2csc4ccccc24)NC1=O)C(=O)N3` (relative stereo) [I-540, Ac-PL3-Asp-Npg-B5-Asp-3COOHF-Aib-Ala-Phe-Lys*3-PyrS2-OctG-BztA-GlnR*3-Ala-NH2], 200 to 750 nM. `CC(=O)N1CCC[C@]12CC=CCCCC1(CCCC=CCCCOC(=O)N3CC[C@@]4(C3)NC(=O)[C@H](CCCCNC(=O)CC[C@@H](C(=O)N[C@@H](C)C(N)=O)NC(=O)[C@H](Cc3csc5ccccc35)NC(=O)[C@H](Cc3cccs3)NC4=O)NC(=O)[C@H](Cc3ccccc3)NC(=O)[C@H](C)NC(=O)C(C)(C)NC(=O)[C@H](Cc3cccc(C(=O)O)c3)NC(=O)[C@H](CC(=O)O)NC1=O)NC(=O)[C@H](CC(C)(C)C)NC(=O)[C@H](CC(=O)O)NC2=O` (relative stereo) [I-541, Ac-PL3-Asp-Npg-B5-Asp-3COOHF-Aib-Ala-Phe-Lys*3-PyrS2-2Thi-BztA-GlnR*3-Ala-NH2]: the IC50 was < 50 nM. The result for `CC(=O)N1CCC[C@]12CC=CCCCC1(CCCC=CCCCOC(=O)N3CC[C@@]4(C3)NC(=O)[C@H](CCCCNC(=O)CC[C@@H](C(=O)N[C@@H](C)C(N)=O)NC(=O)[C@H](Cc3csc5ccccc35)NC(=O)[C@H](Cc3ccsc3)NC4=O)NC(=O)[C@H](Cc3ccccc3)NC(=O)[C@H](C)NC(=O)C(C)(C)NC(=O)[C@H](CCC(=O)O)NC(=O)[C@H](CCC(=O)O)NC1=O)NC(=O)[C@H](CC(C)(C)C)NC(=O)[C@H](CCC(=O)O)NC2=O` (relative stereo) [I-552, Ac-PL3-Glu-Npg-B5-Glu-Glu-Aib-Ala-Phe-Lys*3-PyrS2-3Thi-BztA-GlnR*3-Ala-NH2] reads > 1000 nM; that for `CC(=O)N1CCC[C@]12CC=CCCCC1(CCCC=CCCCOC(=O)N3CC[C@@]4(C3)NC(=O)[C@@H](CCCNC(=O)CC[C@@H](C(=O)N[C@@H](C)C(N)=O)NC(=O)[C@H](Cc3csc5ccccc35)NC(=O)[C@H](Cc3ccsc3)NC4=O)NC(=O)[C@H](Cc3ccccc3)NC(=O)[C@H](C)NC(=O)C(C)(C)NC(=O)[C@H](Cc3cccc(C(=O)O)c3)NC(=O)[C@H](CC(=O)O)NC1=O)NC(=O)[C@H](CC(C)(C)C)NC(=O)[C@H](CC(=O)O)NC2=O` (relative stereo) [I-558, Ac-PL3-Asp-Npg-B5-Asp-3COOHF-Aib-Ala-Phe-dOrn*3-PyrS2-3Thi-BztA-GlnR*3-Ala-NH2], < 50 nM; that for `CC(=O)N1CCC[C@]12CC=CCCCC1(CCCC=CCCCOC(=O)N3CC[C@@]4(C3)NC(=O)[C@@H](CCNC(=O)CC[C@@H](C(=O)N[C@@H](C)C(N)=O)NC(=O)[C@H](Cc3csc5ccccc35)NC(=O)[C@H](Cc3ccsc3)NC4=O)NC(=O)[C@H](Cc3ccccc3)NC(=O)[C@H](C)NC(=O)C(C)(C)NC(=O)[C@H](Cc3cccc(C(=O)O)c3)NC(=O)[C@H](CC(=O)O)NC1=O)NC(=O)[C@H](CC(C)(C)C)NC(=O)[C@H](CC(=O)O)NC2=O` (relative stereo) [I-559, Ac-PL3-Asp-Npg-B5-Asp-3COOHF-Aib-Ala-Phe-dDab*3-PyrS2-3Thi-BztA-GlnR*3-Ala-NH2], < 50 nM. `CC(=O)N1CCC[C@]12CC=CCCCC1(CCCC=CCCCOC(=O)N3CC[C@@]4(C3)NC(=O)[C@H](CCCN(C)C(=O)CCC[C@@H](C(=O)N[C@@H](C)C(N)=O)NC(=O)[C@H](Cc3csc5ccccc35)NC(=O)[C@H](Cc3ccsc3)NC4=O)NC(=O)[C@H](Cc3ccccc3)NC(=O)[C@H](C)NC(=O)C(C)(C)NC(=O)[C@H](Cc3cccc(C(=O)O)c3)NC(=O)[C@H](CC(=O)O)NC1=O)NC(=O)[C@H](CC(C)(C)C)NC(=O)[C@H](CC(=O)O)NC2=O` (relative stereo) [I-561, Ac-PL3-Asp-Npg-B5-Asp-3COOHF-Aib-Ala-Phe-NMeOrn*3-PyrS2-3Thi-BztA-hGlnR*3-Ala-NH2]: the IC50 is < 50 nM. The result for `CC(=O)N1CCC[C@]12CC=CCCCC1(CCCC=CCCCOC(=O)N3CC[C@@]4(C3)NC(=O)[C@H](CCCCNC(=O)CC[C@@H](C(=O)N[C@@H](C)C(N)=O)NC(=O)[C@H](Cc3csc5ccccc35)NC(=O)[C@H](Cc3ccsc3)NC4=O)NC(=O)[C@H]([C@@H](C)c3c(C)cccc3C)NC(=O)[C@H](C)NC(=O)C(C)(C)NC(=O)[C@H](Cc3cccc(C(=O)O)c3)NC(=O)[C@H](CC(=O)O)NC1=O)NC(=O)[C@H](CC(C)(C)C)NC(=O)[C@H](CC(=O)O)NC2=O` (relative stereo) [I-604, Ac-PL3-Asp-Npg-B5-Asp-3COOHF-Aib-Ala-SbMeXylA-Lys*3-PyrS2-3Thi-BztA-GlnR*3-Ala-NH2] reads > 1000 nM; that for `CC(=O)N1CCC[C@]12CC=CCCCC1(CCCC=CCCCOC(=O)N3CC[C@@]4(C3)NC(=O)[C@H](CCCCNC(=O)CC[C@@H](C(=O)N[C@@H](C)C(N)=O)NC(=O)[C@H](Cc3csc5ccccc35)NC(=O)[C@H](Cc3ccsc3)NC4=O)NC(=O)[C@@H]([C@@H](C)c3c(C)cccc3C)NC(=O)[C@H](C)NC(=O)C(C)(C)NC(=O)[C@H](Cc3cccc(C(=O)O)c3)NC(=O)[C@H](CC(=O)O)NC1=O)NC(=O)[C@H](CC(C)(C)C)NC(=O)[C@H](CC(=O)O)NC2=O` (relative stereo) [I-605, Ac-PL3-Asp-Npg-B5-Asp-3COOHF-Aib-Ala-SbMeXylDA-Lys*3-PyrS2-3Thi-BztA-GlnR*3-Ala-NH2], > 1000 nM. Take `CC(=O)N1CCC[C@]12CC=CCCCC1(CCCC=CCCCOC(=O)N3CC[C@@]4(C3)NC(=O)[C@H](CCCCNC(=O)CC[C@@H](C(=O)N[C@@H](CCCCN=[N+]=[N-])C(N)=O)NC(=O)[C@H](Cc3csc5ccccc35)NC(=O)[C@H](Cc3ccsc3)NC4=O)NC(=O)[C@H](Cc3ccccc3)NC(=O)[C@H](C)NC(=O)C(C)(C)NC(=O)[C@H](Cc3cccc(C(=O)O)c3)NC(=O)[C@H](CCC(=O)O)NC1=O)NC(=O)[C@H](CC(C)(C)C)NC(=O)[C@H](CCC(=O)O)NC2=O` (relative stereo) [I-606, Ac-PL3-Glu-Npg-B5-Glu-3COOHF-Aib-Ala-Phe-Lys*3-PyrS2-3Thi-BztA-GlnR*3-AzLys-NH2]: the IC50 was > 1000 nM. For `CC(=O)N1CCC[C@]12CC=CCCCC1(CCCC=CCCCOC(=O)N3CC[C@@]4(C3)NC(=O)[C@H](CCCCNC(=O)CC[C@@H](C(=O)N[C@@H](CCCCN=[N+]=[N-])C(N)=O)NC(=O)[C@H](Cc3csc5ccccc35)NC(=O)[C@H](Cc3ccsc3)NC4=O)NC(=O)[C@H](Cc3ccccc3)NC(=O)[C@H](C)NC(=O)C(C)(C)NC(=O)[C@H](Cc3cccc(C(=O)O)c3)NC(=O)[C@H](CC(=O)O)NC1=O)NC(=O)[C@H](CC(C)(C)C)NC(=O)[C@H](CC(=O)O)NC2=O` (relative stereo) [I-607, Ac-PL3-Asp-Npg-B5-Asp-3COOHF-Aib-Ala-Phe-Lys*3-PyrS2-3Thi-BztA-GlnR*3-AzLys-NH2], the IC50 was < 50 nM.

By IC50 is commonly meant the concentration at which inhibition is half-maximal. High values mean a need for much substance, low ones inhibition by little substance.
